Test results published in patent US11806555B2, “Methods for treating hair loss disorders” (THE TRUSTEES OF COLUMBIA UNIVERSITY IN THE CITY OF NEW YORK, priority 2010, dated 2023).

System: dermal sheath cells

Substance: tofacitinib
- IL-15-induced LAK cell cytotoxic function (dermal sheath cell cytotoxicity): inhibits
